Measurements taken from US12428380B2 (PSYLO PTY LTD, priority 2023, dated 2025).

Columns and labels:
[1] = test system: C57BL/6J mice; experiment: Biotelemetry and head-twitch response (HTR) experiments (Example 50a); conditions: male C57BL/6 mice, SC administration over several doses; for head-twitch response (HTR): FIG. 2; for tolerability (temperature, locomotor, HTR data): FIGS. 2-5
[2] = test system: ICR mice; experiment: Acute restraint stress - tail suspension test (Example 51a); format: in vivo, mouse; conditions: male ICR mice after 5 h acute restraint stress, IP, tested 10 min after treatment, FIGS. 6 and 7
[3] = In vivo pharmacokinetics, plasma and brain exposure after IP dosing (Example 49a); conditions: male C57BL/6 mice, IP 10 mg/kg

SMILES	head-twitch response (HTR) [1]	tolerability (temperature, locomotor, HTR data) [1]	immobility time in tail suspension test [2]	Plasma AUC0-last [3]
COc1ccnc2[nH]cc(CCN(C)C)c12	not promoting increased head-twitch response	well-tolerated	–	–
COc1cnc2[nH]cc(CCN(C)C)c2c1	not promoting increased head-twitch response	well-tolerated	decrease the immobility time	–
COc1nccc2[nH]cc(CCN(C)C)c12	–	–	–	1.63 µM·h
COc1ccc2[nH]cc(CCN(C)C)c2n1	not promoting increased head-twitch response	well-tolerated	–	1.37 µM·h
